From patent US20110052537A1, “NITRO-BASED EXPLOSIVE REMEDIATION” (published 2011)

Columns and labels:
[1] = system: Desulfovibrio desulfuricans ssp dosulluricans A; assay: TNT degradation by ruminal bacteria cultures (Table 2); conditions: substrate A, anaerobic culture with TNT
[2] = system: Clostridium polysaccharolyticum ATCC 33142; assay: as above; conditions: Clostridium polysaccharolyticum ATCC 33142, substrate C; anaerobic culture with TNT

Row | SMILES | TNT / metabolite found in culture (HPLC), column per compound [1] [%] | TNT / metabolite found in culture (HPLC), column per compound [2] [%]
1 | Cc1c(N)cc(N)cc1[N+](=O)[O-] | 0 | 0
2 | Cc1c(N)cc([N+](=O)[O-])cc1[N+](=O)[O-] | 21 | 20
3 | Cc1c([N+](=O)[O-])cc(N)cc1[N+](=O)[O-] | 34 | 19
4 | Cc1c(N)cc([N+](=O)[O-])cc1N | 0 | 0
